# Laboratory results: patent US10246453B2, “Benzenesulfonamide compounds and their use as therapeutic agents” (Xenon Pharmaceuticals Inc., priority 2016, dated 2019)
# Chains of the proteins cited; added tags and fusions are not shown. A line that says so, or that is headed by a name, gives the form on record, which may keep a tag or linker.
# UniProt Q9UQD0, whole entry, looked up: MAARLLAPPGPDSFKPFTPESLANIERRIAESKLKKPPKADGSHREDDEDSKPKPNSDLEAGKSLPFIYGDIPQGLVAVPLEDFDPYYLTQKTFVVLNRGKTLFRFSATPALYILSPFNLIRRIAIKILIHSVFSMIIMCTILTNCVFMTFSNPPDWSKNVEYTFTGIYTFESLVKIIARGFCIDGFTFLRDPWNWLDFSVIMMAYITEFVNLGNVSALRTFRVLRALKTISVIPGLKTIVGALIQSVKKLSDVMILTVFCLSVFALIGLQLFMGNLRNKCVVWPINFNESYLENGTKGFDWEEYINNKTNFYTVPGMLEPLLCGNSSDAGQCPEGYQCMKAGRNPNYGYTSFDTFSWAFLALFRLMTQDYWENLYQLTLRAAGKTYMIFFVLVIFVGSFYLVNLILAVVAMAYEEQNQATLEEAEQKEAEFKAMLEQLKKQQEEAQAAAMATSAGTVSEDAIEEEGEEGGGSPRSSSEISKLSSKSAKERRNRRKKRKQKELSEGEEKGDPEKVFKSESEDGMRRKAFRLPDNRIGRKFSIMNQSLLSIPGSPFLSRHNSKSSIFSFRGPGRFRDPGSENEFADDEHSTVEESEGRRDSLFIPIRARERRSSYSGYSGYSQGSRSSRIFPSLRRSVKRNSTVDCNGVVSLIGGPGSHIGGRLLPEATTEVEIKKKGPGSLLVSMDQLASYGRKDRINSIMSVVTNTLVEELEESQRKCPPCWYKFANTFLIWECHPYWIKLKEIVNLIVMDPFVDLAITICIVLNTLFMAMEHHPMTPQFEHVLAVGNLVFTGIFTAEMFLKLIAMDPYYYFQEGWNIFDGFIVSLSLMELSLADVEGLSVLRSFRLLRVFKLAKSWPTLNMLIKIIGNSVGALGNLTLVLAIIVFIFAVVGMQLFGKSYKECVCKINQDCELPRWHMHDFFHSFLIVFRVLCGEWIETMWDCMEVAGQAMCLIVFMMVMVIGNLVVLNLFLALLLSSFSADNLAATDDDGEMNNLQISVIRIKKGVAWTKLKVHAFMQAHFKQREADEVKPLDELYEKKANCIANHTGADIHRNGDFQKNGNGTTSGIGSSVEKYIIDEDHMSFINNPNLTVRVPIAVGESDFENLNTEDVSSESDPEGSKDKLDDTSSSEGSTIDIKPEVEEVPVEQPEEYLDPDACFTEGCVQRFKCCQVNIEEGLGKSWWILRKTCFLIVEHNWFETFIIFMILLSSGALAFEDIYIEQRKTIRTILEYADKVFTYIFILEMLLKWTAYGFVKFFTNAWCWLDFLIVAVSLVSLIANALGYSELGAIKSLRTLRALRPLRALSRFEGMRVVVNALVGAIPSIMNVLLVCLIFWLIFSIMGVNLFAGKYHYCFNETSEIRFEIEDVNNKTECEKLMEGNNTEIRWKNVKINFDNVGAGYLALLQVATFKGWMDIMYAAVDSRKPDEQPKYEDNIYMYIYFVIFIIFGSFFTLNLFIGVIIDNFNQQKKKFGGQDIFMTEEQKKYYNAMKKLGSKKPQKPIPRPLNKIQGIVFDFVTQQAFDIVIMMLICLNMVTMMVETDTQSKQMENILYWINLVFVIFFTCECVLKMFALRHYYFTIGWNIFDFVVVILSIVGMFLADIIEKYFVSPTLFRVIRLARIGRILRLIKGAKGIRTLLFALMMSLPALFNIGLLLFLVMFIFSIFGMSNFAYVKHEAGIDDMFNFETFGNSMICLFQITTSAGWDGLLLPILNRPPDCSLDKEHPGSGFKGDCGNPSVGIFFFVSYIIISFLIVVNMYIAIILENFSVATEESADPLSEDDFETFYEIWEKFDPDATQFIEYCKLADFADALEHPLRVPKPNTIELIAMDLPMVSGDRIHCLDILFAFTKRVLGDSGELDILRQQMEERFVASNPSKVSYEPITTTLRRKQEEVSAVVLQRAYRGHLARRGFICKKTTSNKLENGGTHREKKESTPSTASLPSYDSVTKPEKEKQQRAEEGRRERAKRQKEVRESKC
# UniProt Q14524, other isoform, or with tags, fused parts or gaps: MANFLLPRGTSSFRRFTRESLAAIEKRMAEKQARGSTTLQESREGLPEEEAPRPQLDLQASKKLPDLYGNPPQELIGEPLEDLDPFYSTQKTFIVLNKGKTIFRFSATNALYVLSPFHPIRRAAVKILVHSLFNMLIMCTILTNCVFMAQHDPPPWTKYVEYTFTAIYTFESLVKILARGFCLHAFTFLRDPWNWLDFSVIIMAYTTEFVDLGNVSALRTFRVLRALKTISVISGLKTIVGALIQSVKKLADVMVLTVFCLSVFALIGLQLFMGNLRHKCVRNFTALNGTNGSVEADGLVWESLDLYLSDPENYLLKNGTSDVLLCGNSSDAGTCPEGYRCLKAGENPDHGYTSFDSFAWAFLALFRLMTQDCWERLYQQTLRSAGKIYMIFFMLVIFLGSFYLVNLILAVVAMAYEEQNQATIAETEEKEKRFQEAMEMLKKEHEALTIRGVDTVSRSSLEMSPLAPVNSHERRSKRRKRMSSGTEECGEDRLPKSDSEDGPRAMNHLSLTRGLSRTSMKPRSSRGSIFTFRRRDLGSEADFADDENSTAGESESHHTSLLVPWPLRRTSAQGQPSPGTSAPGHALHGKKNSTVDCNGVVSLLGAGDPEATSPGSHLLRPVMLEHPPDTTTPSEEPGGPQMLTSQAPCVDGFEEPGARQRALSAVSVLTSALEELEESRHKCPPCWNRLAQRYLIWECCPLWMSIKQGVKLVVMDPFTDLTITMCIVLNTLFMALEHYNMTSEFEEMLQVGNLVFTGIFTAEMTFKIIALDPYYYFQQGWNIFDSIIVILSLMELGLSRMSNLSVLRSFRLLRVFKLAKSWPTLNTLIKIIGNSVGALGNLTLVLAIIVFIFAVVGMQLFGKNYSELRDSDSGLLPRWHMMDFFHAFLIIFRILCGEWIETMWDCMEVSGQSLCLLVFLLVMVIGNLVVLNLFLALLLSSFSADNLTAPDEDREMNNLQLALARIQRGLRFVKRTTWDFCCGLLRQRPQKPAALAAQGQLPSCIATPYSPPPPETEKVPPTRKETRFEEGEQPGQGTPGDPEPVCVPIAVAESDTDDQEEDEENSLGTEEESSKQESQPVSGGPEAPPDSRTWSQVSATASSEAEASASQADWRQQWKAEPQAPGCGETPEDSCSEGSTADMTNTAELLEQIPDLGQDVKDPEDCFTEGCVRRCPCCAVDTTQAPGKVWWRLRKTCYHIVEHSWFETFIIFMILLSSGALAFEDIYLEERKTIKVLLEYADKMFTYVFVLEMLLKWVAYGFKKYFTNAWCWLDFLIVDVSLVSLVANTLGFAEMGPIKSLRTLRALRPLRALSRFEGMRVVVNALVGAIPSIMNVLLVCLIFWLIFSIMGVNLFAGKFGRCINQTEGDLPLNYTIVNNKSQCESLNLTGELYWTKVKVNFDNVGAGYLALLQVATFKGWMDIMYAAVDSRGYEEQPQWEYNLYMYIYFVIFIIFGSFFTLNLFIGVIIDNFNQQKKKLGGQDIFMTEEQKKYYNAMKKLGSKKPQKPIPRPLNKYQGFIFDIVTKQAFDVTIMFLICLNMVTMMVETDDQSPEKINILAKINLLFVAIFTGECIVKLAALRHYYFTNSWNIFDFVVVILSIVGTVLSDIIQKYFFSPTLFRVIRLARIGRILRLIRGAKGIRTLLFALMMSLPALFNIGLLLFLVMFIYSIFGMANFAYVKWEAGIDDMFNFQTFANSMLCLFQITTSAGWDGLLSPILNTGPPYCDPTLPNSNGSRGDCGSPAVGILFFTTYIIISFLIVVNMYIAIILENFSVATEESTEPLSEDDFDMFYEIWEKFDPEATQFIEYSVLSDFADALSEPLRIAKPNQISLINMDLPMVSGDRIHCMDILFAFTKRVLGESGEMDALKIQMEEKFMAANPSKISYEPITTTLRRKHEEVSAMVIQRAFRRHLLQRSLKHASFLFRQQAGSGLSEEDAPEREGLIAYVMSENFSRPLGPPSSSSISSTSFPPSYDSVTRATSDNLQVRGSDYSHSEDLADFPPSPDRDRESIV
# Structures can show the parent of a compound that is named as a salt. Where two headings read alike, the source gives them in different places.
# Tests used:
# NaV1.6 = NaV1.6 (Homo sapiens (Human), UniProt Q9UQD0); assay: Sodium Influx Assay (Flux), NaV1.6
# NaV1.1 [1] = target: T1, NaV1.1 (Homo sapiens (Human), UniProt P35498); assay: Sodium Influx Assay (Flux), NaV1.1; assay type: cell-based; conditions: Trex HEK293 cells, ANG2 dye; arithmetic mean
# NaV1.5 [2] = target: T2, NaV1.5 (Homo sapiens (Human), UniProt Q14524); assay: cell-based
# NaV1.1 [3] = target: T1, NaV1.1; assay: Electrophysiological Assay (EP), patch voltage clamp, NaV1.1; assay type: cell-based; conditions: HEK-293 cells, whole-cell patch clamp, inactivated state; arithmetic mean
# NaV1.5 [4] = target: T2, NaV1.5; assay: Sodium Influx Assay (Flux), NaV1.5; conditions: read-out: Flux NaV1.5 IC50; Trex HEK293 cells, ANG2 dye; arithmetic mean
# NaV1.5 [5] = target: T2, NaV1.5; assay: Electrophysiological Assay (EP), patch voltage clamp, NaV1.5; assay type: cell-based; conditions: HEK-293 cells, whole-cell patch clamp, inactivated state; arithmetic mean
smiles,measurement,setting,value
"CC1(Oc2cc(F)c(S(=O)(=O)Nc3cscn3)cc2Cl)CCN(Cc2ccccc2)C1 (racemic) [Example 310, rac-4-((1-benzyl-3-methylpyrrolidin-3-yl)oxy)-5-chloro-2-fluoro-N-(thiazol-4-yl)benzenesulfonamide]",IC50,NaV1.6,2.38 µM
"C[C@@H]1CN(Cc2ccccc2)CC[C@@H]1Oc1ccc(S(=O)(=O)Nc2nccs2)cc1Cl (relative stereo) [Example 8A, 4-((cis-1-benzyl-3-methylpiperidin-4-yl)oxy)-3-chloro-N-(thiazol-2-yl)benzenesulfonamide]",IC50,NaV1.1 [1],5.01 µM
same,IC50,NaV1.6,1.09 µM
"C[C@@H]1CN(Cc2ccccc2)CC[C@H]1Oc1ccc(S(=O)(=O)Nc2nccs2)cc1Cl (relative stereo) [Example 8B, 4-((trans-1-benzyl-3-methylpiperidin-4-yl)oxy)-3-chloro-N-(thiazol-2-yl)benzenesulfonamide]",IC50,NaV1.1 [1],4.31 µM
same,IC50,NaV1.5 [2],14.7 µM
"C[C@@H]1CN(Cc2ccccc2F)CC[C@@H]1Oc1ccc(S(=O)(=O)Nc2nccs2)cc1Cl (relative stereo) [Example 10A, 3-chloro-4-((cis-1-(2-fluorobenzyl)-3-methylpiperidin-4-yl)oxy)-N-(thiazol-2-yl)benzenesulfonamide]",IC50,NaV1.1 [1],4.66 µM
"C[C@@H]1CN(Cc2ccccc2F)CC[C@H]1Oc1ccc(S(=O)(=O)Nc2nccs2)cc1Cl (relative stereo) [Example 10B, 3-chloro-4-((trans-1-(2-fluorobenzyl)-3-methylpiperidin-4-yl)oxy)-N-(thiazol-2-yl)benzenesulfonamide]",IC50,NaV1.1 [1],5.08 µM
same,IC50,NaV1.5 [2],8.56 µM
"CC(c1ccccc1)N1CCC(Oc2ccc(S(=O)(=O)Nc3nccs3)cc2Cl)CC1 (stereo not shown) [Example 52, 3-chloro-4-((1-(1-phenylethyl)piperidin-4-yl)oxy)-N-(thiazol-2-yl)benzenesulfonamide]",IC50,NaV1.1 [1],8.37 µM
"C[C@H](c1ccccc1)N1CCC(Oc2ccc(S(=O)(=O)Nc3nccs3)cc2Cl)CC1 [Example 55, (R)-3-chloro-4-((1-(1-phenylethyl)piperidin-4-yl)oxy)-N-(thiazol-2-yl)benzenesulfonamide 2,2,2-trifluoroacetate]",IC50,NaV1.1 [1],11.8 µM
same,IC50,NaV1.1 [3],> 10 µM
same,IC50,NaV1.5 [4],9.83 µM
"C[C@@H](c1ccccc1)N1CCC(Oc2ccc(S(=O)(=O)Nc3nccs3)cc2Cl)CC1 [Example 58, (S)-3-chloro-4-((1-(1-phenylethyl)piperidin-4-yl)oxy)-N-(thiazol-2-yl)benzenesulfonamide 2,2,2-trifluoroacetate]",IC50,NaV1.1 [1],5.14 µM
same,IC50,NaV1.1 [3],9.14 µM
"Cc1cc(S(=O)(=O)Nc2cscn2)c(F)cc1N(C)[C@H]1CCN(Cc2ccccc2)C1 [Example 101, (S)-4-((1-benzylpyrrolidin-3-yl)(methyl)amino)-2-fluoro-5-methyl-N-(thiazol-4-yl)benzenesulfonamide formate]",IC50,NaV1.5 [5],> 30 µM
"Cc1cc(S(=O)(=O)Nc2cscn2)c(F)cc1N(C)[C@H]1CCN(Cc2ccccc2O)C1 [Example 113, (S)-2-fluoro-4-((1-(2-hydroxybenzyl)-pyrrolidin-3-yl)(methyl)amino)-5-methyl-N-(thiazol-4-yl)benzenesulfonamide]",IC50,NaV1.5 [4],13 µM
"COc1cccc(CN2CC[C@H](N(C)c3cc(F)c(S(=O)(=O)Nc4cscn4)cc3Cl)C2)c1 [Example 219, (S)-5-chloro-2-fluoro-4-((1-(3-methoxybenzyl)pyrrolidin-3-yl)(methyl)amino)-N-(thiazol-4-yl)benzenesulfonamide]",IC50,NaV1.5 [4],13 µM
"O=S(=O)(Nc1cscn1)c1cc(Cl)c(OC2CCN(Cc3ccccc3)CC2)cc1F [Example 238, 4-((1-benzylpiperidin-4-yl)oxy)-5-chloro-2-fluoro-N-(thiazol-4-yl)benzenesulfonamide 2,2,2-trifluoroacetate]",IC50,NaV1.5 [4],13 µM
"Cc1cc(S(=O)(=O)Nc2cscn2)c(F)cc1N(C)[C@@H]1CCN(Cc2ccccc2)C1 [Example 272, (R)-4-((1-benzylpyrrolidin-3-yl)(methyl)amino)-2-fluoro-5-methyl-N-(thiazol-4-yl)benzenesulfonamide]",IC50,NaV1.1 [1],11.7 µM
same,IC50,NaV1.5 [4],18.2 µM
"Cc1cc(S(=O)(=O)Nc2cscn2)ccc1N(C)[C@H]1CCN(Cc2ccccc2)C1 [Example 284, (S)-4-((1-benzylpyrrolidin-3-yl)(methyl)amino)-3-methyl-N-(thiazol-4-yl)benzenesulfonamide 2,2,2-trifluoroacetate]",IC50,NaV1.5 [4],13 µM
"C[C@@]1(Oc2cc(F)c(S(=O)(=O)Nc3cscn3)cc2Cl)CCN(Cc2ccccc2)C1 [Example 311B, (R)-4-((1-benzyl-3-methylpyrrolidin-3-yl)oxy)-5-chloro-2-fluoro-N-(thiazol-4-yl)benzenesulfonamide]",IC50,"NaV1.6; read-out: Flux NaV1.6 IC50, Trex HEK293 cells, ANG2 dye, arithmetic mean",1.3 µM
